Values quoted from earlier work as cited in article PMC12119672, “Development and evaluation of [^11C]DPA-813 and [^18F]DPA-814: novel TSPO PET tracers insensitive to human single nucleotide polymorphism rs6971” (European Journal of Nuclear Medicine and Molecular Imaging, 2025).
pKi: −log10 of the molar value.

Amino acid sequences for entries named in this document (tags omitted).
UniProt P30536, whole entry T147A: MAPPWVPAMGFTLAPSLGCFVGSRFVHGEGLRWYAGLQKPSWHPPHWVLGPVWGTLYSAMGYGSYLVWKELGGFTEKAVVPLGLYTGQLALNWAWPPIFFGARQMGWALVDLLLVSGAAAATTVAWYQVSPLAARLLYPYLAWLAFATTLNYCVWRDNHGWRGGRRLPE
UniProt P30536, whole entry, stated change not applied: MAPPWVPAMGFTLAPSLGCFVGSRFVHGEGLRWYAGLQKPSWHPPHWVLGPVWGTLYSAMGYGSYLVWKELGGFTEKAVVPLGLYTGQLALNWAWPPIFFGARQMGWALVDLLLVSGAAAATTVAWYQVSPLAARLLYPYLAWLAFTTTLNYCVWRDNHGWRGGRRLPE

Experiments:
[1] = biological target: T1, WT human TSPO (Homo sapiens, UniProt P30536); parameters: method as in PMID 30108706; conditions: identical assay conditions; read-out: Ki WT hTSPO; cited from earlier work
T1 construct: expressed in transfected cells

[2] = biological target: T2, A147T human TSPO (Homo sapiens, UniProt P30536); parameters: method as in PMID 30108706; conditions: identical assay conditions; read-out: Ki A147T hTSPO; cited from earlier work
T2 construct: expressed in transfected cells

For `CC[C@@H](C)N(C)C(=O)c1cc2ccccc2c(-c2ccccc2Cl)n1` [(R)-PK 11195], the pKi [1] is given as 7.53 and the pKi [2] is given as 7.44.
